{"sequences": {"note": "By UniProt entry, the sequences of proteins in these tests, tags left out.", "UniProt Q01638, whole entry": "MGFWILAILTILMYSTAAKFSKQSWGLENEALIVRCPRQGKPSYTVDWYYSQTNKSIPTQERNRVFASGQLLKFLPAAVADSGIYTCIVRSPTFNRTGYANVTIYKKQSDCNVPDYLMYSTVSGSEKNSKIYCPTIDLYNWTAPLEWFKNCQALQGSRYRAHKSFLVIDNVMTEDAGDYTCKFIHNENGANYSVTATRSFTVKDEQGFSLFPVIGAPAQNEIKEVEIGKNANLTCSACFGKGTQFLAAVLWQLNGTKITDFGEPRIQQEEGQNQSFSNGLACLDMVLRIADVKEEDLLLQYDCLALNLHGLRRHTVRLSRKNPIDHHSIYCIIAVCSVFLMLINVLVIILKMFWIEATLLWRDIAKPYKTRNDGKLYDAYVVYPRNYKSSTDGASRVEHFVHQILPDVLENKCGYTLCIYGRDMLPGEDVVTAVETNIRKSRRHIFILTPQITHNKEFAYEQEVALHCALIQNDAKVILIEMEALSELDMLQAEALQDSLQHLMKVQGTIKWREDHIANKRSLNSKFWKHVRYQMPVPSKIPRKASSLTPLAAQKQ", "UniProt O95760, whole entry partner": "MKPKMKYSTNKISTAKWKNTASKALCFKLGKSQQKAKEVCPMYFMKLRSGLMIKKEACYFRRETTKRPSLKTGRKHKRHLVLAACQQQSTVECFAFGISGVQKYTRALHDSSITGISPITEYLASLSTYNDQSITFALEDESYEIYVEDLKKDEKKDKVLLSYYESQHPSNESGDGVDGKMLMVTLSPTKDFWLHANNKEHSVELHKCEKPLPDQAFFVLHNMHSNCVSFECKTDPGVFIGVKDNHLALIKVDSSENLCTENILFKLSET"}, "source": "PubChem BioAssay AID1259354", "note": "This is a selection; strong and weak results do not stand in their true shares. Results filed as inconclusive are left out. Activity calls are given as the source filed them. No stated cut-off is given here; in the data, active means inhibition above about 30%; inconclusive means mostly about 10% to 28%; inactive means weaker than that."}
{"target": "Interleukin-1 receptor-like 1 (Homo sapiens) (UniProt Q01638)", "assay": "blocks human ST2 binding to IL-33, primary screen, biochemical, AlphaLISA (AID 1259354)", "conditions": "AlphaLISA ST2-Fc/biotin-IL-33 interaction, 1 h; at 17 µM; stronger effect = higher value"}
{"smiles": "O=[N+]([O-])c1ccc(-n2ncc3c([N+](=O)[O-])cc([N+](=O)[O-])cc32)c([N+](=O)[O-])c1", "inhibition": "active: 61%"}
{"smiles": "O=[N+]([O-])c1cc([N+](=O)[O-])c(C=Nc2ccccc2)c([N+](=O)[O-])c1", "inhibition": "active: 47%"}
